Earlier results, collected in patent US12018014B2, “Pyrrole-substituted indolone derivative or pharmaceutically acceptable salts thereof, and preparation method therefor and application thereof” (SUZHOU GENHOUSE PHARMACEUTICAL CO., LTD., priority 2018, dated 2024).

Tested on: FLT3-ITD phosphorylation
Conditions: single administration; cited from earlier work

For `CCN(CC)CCNC(=O)c1c(C)[nH]c(/C=C2\C(=O)Nc3ccc(F)cc32)c1C` [Sunitinib], the “duration of FLT3-ITD phosphorylation inhibitory effect” value is given as 16 h.
